The subject of one data set is pancreatectomized dogs. Description: Subcutaneous studies in pancreatectomized (diabetic) dogs: plasma glucose. The following applies: dog, in vivo, sc.
A further data set relates to normal dog. The note with it: in vivo.

For the substance “phosphorylated insulin: porcine insulin chemically phosphorylated with POCl3/phosphoric acid in DMF; 3 or 5 negatively charged adducts; about 5-10% unmodified”, in the data set on pancreatectomized dogs, the “plasma glucose at greater than 4-fold larger doses” value is on record as “delayed tendency to levels beneath the normal range”. Besides, the “insulin concentrations in the periphery relative to regular insulin” value in the data set with normal dog is “almost two-fold higher”.

These data come from patent publication US5242900A, “Treatment of diabetes using phosphorylated insulin” (priority 1991, dated 1993).
